The values below come from patent US10059688B2, “Protein tyrosine kinase modulators and methods of use” (BETTA PHARMACEUTICALS CO., LTD., priority 2013, dated 2018).

Chains of the proteins cited; added tags and fusions are not shown. Residues count along the entry.
UniProt Q9UM73, 19-1620: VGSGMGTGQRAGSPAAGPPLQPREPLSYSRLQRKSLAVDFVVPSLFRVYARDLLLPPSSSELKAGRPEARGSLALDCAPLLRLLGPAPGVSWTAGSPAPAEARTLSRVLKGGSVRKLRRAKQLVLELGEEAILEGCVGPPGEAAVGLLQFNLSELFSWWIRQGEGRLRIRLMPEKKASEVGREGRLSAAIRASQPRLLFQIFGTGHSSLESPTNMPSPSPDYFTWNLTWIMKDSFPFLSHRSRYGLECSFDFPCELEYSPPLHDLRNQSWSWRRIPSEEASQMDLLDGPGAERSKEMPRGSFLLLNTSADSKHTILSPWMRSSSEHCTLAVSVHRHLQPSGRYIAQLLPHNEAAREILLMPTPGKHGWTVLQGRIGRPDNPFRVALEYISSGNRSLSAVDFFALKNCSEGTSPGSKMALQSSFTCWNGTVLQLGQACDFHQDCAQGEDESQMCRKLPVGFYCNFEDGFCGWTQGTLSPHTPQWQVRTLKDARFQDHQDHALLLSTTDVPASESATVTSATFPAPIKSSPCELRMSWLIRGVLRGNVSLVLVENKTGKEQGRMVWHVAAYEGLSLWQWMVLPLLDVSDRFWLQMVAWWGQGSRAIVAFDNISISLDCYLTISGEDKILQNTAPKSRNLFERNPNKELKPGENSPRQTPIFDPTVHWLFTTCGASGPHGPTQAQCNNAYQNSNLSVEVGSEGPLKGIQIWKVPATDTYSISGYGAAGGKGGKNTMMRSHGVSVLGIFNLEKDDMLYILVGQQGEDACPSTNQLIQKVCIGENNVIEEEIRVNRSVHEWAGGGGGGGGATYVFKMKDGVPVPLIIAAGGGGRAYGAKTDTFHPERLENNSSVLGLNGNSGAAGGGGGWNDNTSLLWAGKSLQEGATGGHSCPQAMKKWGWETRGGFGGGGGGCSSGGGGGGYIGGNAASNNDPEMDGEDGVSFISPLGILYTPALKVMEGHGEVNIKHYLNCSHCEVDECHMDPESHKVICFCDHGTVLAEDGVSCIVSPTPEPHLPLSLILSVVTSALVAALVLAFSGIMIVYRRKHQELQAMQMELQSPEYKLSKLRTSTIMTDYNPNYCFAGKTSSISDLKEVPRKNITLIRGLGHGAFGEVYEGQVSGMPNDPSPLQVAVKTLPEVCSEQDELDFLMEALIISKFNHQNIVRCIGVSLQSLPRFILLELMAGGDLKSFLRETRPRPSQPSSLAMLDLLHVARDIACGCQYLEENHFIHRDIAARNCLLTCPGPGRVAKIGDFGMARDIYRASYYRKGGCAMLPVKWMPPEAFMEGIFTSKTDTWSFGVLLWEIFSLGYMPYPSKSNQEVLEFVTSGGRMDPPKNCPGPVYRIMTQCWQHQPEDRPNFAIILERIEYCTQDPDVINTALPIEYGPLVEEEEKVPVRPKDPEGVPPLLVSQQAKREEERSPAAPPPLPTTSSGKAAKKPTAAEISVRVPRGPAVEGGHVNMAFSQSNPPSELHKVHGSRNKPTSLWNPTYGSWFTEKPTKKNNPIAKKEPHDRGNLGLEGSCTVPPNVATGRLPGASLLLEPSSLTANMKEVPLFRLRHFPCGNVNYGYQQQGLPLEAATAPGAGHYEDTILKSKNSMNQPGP

The target in one experiment is ALK (Homo sapiens (Human), UniProt Q9UM73). Description: Kinase assay (IC50), fluorescence peptide assay. As to conditions: 10 pt curve, 1 μM top concentration, Km ATP. It counts as biochemical.
A further experiment addresses EGFR (ErbB1) T790M (Homo sapiens (Human), UniProt P00533, T790M). Nature of the experiment: Kinase assay (IC50), fluorescence peptide assay. The conditions noted are these: 10 pt curve, 1 μM top concentration, Km ATP. It counts as biochemical.
The next experiment has as its target EGFR (ErbB1) (Homo sapiens (Human), UniProt P00533). Description: Kinase assay (IC50), fluorescence peptide assay. It counts as biochemical. As to conditions: EGFR WT; 10 pt curve, 10 μM top concentration, Km ATP.
A further experiment deals with EGFR (ErbB1) T790M L858R (Homo sapiens (Human), UniProt P00533, L858R/T790M). As to conditions: read-out: IC50 EGFR (ErbB1) T790M L858R; 10 pt curve, 1 μM top concentration, Km ATP.
For the next experiment, the target named is EGFR (ErbB1) L858R (Homo sapiens (Human), UniProt P00533, L858R). Nature of the experiment: Kinase assay (IC50), fluorescence peptide assay. The conditions noted are these: read-out: IC50 EGFR (ErbB1) L858R; 10 pt curve, 1 μM top concentration, Km ATP.

Broadly, the IC50 is the concentration that inhibits the measured activity by half. “N-(5-(5-chloro-4-(2-(2-(dimethylamino)-2-oxoactyl)phenylamino)pyrimidin-2-ylamino)-2-(2-(dimethylamino)ethoxy)phenyl)acrylamide [Example 115]”: 8.62 nM corresponded to half-maximal inhibition at ALK (IC50).

As to “N-(5-(5-chloro-4-(2-(2-(dimethylamino)-2-oxoactyl)phenylamino)pyrimidin-2-ylamino)-4-methoxy-2-(4-methylpiperazin-1-yl)phenyl)acrylamide [Example 74]”, the IC50 on ALK worked out at 9.33 nM; at EGFR (ErbB1) T790M it was 15.8 nM; against EGFR (ErbB1) it was 513 nM; on EGFR (ErbB1) T790M L858R, 15.5 nM; on EGFR (ErbB1) L858R, 422 nM.
